Assay results reported in PubChem BioAssay AID485273 (Sanford-Burnham Center for Chemical Genomics, 2010).
This is a selection; strong and weak results do not stand in their true shares. Some tests of the compounds listed are not included; inactive here does not mean inactive elsewhere. The source made the active and inactive calls. No stated cut-off is given here; in the data, active means inhibition above about 45% (passing the limit was not always enough); inconclusive means no clear call, values can overlap the other calls.

Chains of the proteins cited; added tags and fusions are not shown.
UniProt P61088, whole entry, looked up: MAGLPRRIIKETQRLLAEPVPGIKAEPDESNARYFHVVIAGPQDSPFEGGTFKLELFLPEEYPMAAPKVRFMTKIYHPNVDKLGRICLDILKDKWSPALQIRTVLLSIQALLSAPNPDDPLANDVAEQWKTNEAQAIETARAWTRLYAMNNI

Target: Ubiquitin-conjugating enzyme E2 N (Homo sapiens) (UniProt P61088)
Experiment: UBC13 polyubiquitin chain formation inhibitors, primary screen, biochemical, TR-FRET, uHTS (AID 485273)
Conditions: at 20 µM, active compounds read high

Structure (SMILES) | inhibition
O=C(OC1CN2CCC1CC2)C(CO)(c1ccccc1)c1ccccc1 (centres undefined) | inactive: 11.3%
COc1ccc(Br)c(C(=O)NCC2(N3CCCCC3)CCCCC2)c1 | inactive: 1.1%
CN(C)c1cccc(C(=O)NCC2(N(C)C)CCCCC2)c1 | inactive: 5.1%
CC(C)Oc1ccc(C(=O)NCC2(N(C)C)CCCCC2)cc1 | inactive: -1.2%
CN(C)C1(CNC(=O)c2ccc(Br)cc2)CCCCC1 | inactive: 0.9%
COc1cc(C(=O)NCC2(N(C)C)CCCCC2)c([N+](=O)[O-])cc1OC | inactive: -7.3%
COc1cccc(C(=O)NCC2(N3CCCCC3)CCCCC2)c1 | inactive: 1.4%
COc1ccc(Cl)cc1C(=O)NCC1(N(C)C)CCCCC1 | inactive: 0.6%
O=C(NCC1(N2CCCCC2)CCCCC1)c1cccc(Cl)c1 | inactive: 2.5%
Cc1ccccc1C(=O)NCC1(N2CCCCC2)CCCCC1 | inactive: -2.6%
CN(C)C1CCCC1OC(=O)C(O)(c1ccccc1)c1ccccc1 (centres undefined) | inactive: 12.4%
CN(C)c1ccc(C(=O)NCC2(N(C)C)CCCCC2)cc1 | inactive: -10.4%
C=CCN1CCN(CCOC(=O)C(O)(c2ccccc2)c2ccccc2)CC1 | inactive: -5.6%
O=C(NCC1(N2CCCCC2)CCCCC1)c1cc(F)c(F)cc1Cl | inactive: 5.7%
Cc1cc(C(=O)NCC2(N3CCCCC3)CCCCC2)ccc1[N+](=O)[O-] | inactive: 5.4%
CCN1CCCC(OC(=O)C2(O)c3ccccc3C=Cc3ccccc32)C1 (centres undefined) | inactive: 5.3%
O=C(NCC1(N2CCCCC2)CCCCC1)c1cccc(Br)c1 | inactive: -8.4%
COc1ccc(C(=O)NCC2(N(C)C)CCCCC2)cc1 | inactive: -4%
O=C(NCC1(N2CCCCC2)CCCCC1)c1cc([N+](=O)[O-])ccc1Cl | inactive: 3.4%
CN1[C@@H]2CC[C@H]1CC(OC(=O)C(O)(c1ccccc1)c1ccccc1)C2 (some centres undefined) | inactive: 3.2%
CC(C)N1C(=O)CC2(CCN(CCOC(=O)C(O)(c3ccccc3)c3ccccc3)CC2)C1=O | inactive: 3.5%
CCN(CC)CC(C)C(C)OC(=O)C(O)(c1ccccc1)c1ccccc1 (centres undefined) | inactive: 0.2%
COc1cc(SC)ccc1C(=O)NCC1(N(C)C)CCCCC1 | inactive: -0.8%
Cc1ccc(C(=O)NCC2(N3CCCCC3)CCCCC2)cc1 | inactive: 2.1%
